This assay relates to beta-glucuronidase (GUS) reporter in genetically modified tobacco plants. To be noted: 2 μM, hand-held UV lamp.

Take “1-(4,5-dimethoxy-2-nitrophenyl)-ethyl-caged doxycycline [DMNPE-caged doxycycline]”: the “GUS expression, irradiated half of leaf piece” value is “significant GUS expression”.

Values taken from patent publication US20060105458A1, “Caged tetracycline (derivatives), their generation, and their use for photoactivated gene expression” (priority 2002, published 2006).
